Laboratory results taken from US20260146107A1 (ALLIGATOR BIOSCIENCE, published 2026).

Legend:
[1] = target: T1, human CEACAM1 expressed on CHO cells (human, UniProt P13688 35-526); experiment: flow cytometry on CHO-CEACAM1 cells, fluorochrome-conjugated anti-human IgG, MFI
T1 construct: whole, on cells; also called CHO-CEACAM1; CEACAM1 on cells
T1 sequence (looked up): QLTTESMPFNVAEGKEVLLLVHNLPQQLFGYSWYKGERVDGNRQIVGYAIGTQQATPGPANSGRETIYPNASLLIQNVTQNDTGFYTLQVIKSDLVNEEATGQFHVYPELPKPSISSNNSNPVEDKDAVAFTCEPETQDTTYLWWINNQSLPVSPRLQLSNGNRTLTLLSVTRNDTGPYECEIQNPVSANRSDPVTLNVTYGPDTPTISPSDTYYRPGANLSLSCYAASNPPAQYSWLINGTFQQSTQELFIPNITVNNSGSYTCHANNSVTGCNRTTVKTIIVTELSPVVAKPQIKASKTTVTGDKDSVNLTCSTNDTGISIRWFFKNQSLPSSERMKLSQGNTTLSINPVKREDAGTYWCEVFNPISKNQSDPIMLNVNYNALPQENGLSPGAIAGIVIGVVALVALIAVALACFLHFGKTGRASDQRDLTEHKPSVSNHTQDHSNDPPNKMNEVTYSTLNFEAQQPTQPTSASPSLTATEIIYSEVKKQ

[2] = target: T2, human CEACAM5, recombinant (R&D Systems #4128-CM-050) (human, UniProt P06731 35-685); experiment: Octet BLI, captured bsAb, monomeric CEACAM5 in solution, 1:1 fit
T2 construct: Bought; coated in ELISA and used as monomeric analyte in Octet; also called hCEACAM-5; Human CEACAM5-His; not shown: His tag
T2 sequence (looked up): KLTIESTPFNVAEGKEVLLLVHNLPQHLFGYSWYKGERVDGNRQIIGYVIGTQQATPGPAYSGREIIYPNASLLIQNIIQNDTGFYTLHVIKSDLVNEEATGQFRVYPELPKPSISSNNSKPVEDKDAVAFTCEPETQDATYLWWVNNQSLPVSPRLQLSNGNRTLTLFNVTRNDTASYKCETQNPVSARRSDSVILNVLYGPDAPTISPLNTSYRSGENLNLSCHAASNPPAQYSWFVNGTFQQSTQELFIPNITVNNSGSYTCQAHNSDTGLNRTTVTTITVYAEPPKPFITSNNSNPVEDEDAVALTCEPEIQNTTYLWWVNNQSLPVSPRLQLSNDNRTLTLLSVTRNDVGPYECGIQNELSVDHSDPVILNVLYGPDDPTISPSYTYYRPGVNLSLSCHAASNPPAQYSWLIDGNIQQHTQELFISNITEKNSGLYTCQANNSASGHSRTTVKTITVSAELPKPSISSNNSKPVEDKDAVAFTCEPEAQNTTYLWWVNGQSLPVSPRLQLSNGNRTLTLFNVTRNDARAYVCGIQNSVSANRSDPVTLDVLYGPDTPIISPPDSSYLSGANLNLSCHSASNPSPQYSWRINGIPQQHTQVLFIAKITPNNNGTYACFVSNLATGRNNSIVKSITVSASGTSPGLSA

[3] = target: T3, biotinylated human CEACAM5-His (Acro Biosystems #CE5-H82E0) (human, UniProt P06731 35-685, biotinylated (site not stated)); experiment: Octet BLI, captured CEACAM5-biotin, bsAb in solution, 1:1 fit
T3 construct: also called CEACAM5-biotin; captured human CEACAM5-biotin; not shown: His tag
T3 sequence (looked up): T2 sequence (looked up)

B1: Multi42 (bispecific antibody, human IgG1, kappa, L234A L235A)
chain 1: not shown
chain 2: EIVLTQSPGTLSLSPGERATLSCRASQSVSSSYLAWYQEKPGQAPRLLIYGASSRATGIPDRFSGSGSGTDFTLTISRLEPEDFAVYYCQQYWYPLTFGQGTKLEIKRTVAAPSVFIFPPSDEQLKSGTASVVCYLNNFYPREAKVQWKVDNALQSGNSQESVTEQDSKDSTYSLWSTLTLSKADYEKHKVYACEVTHQGLSSPVTKSFNRGEC
chain 3: EVQLLESGGGLVQPGGSLRLSCAASGFTFSTYGMHWVREAPGKGLEWLSYISGGSSYIFYADSVKGRFTISRDNSKNTLYLQMNSLRAEDTAVYYCARILRGGSGMDLWGQGTLVTVSSASTKGPSVFPLAPSSKSTSGGTAALGCLVKDYFPEPVTVSWNSGALTSGVHTFPAVLQSSGLYSLTSVVEVPSSSLGTQTYICNVNHKPSNTKVDKKVEPKSC
binding result [1]: no binding (tested: about 400 nM) | Kd [2]: 0.002 µM | koff [2]: 0.00091 s⁻¹ | kon [2]: 470000 M⁻¹ s⁻¹ | Kd [3]: 0.84 µM | koff [3]: 0.0015 s⁻¹ | kon [3]: 1800 M⁻¹ s⁻¹
